According to ChEMBL document CHEMBL3763103, “Synthesis and evaluation of vitamin D receptor-mediated activities of cholesterol and vitamin D metabolites” (Eur J Med Chem, 2016):

What was measured:
[1] = target: T1, Vitamin D3 receptor (Homo sapiens) (UniProt P11473); assay: Agonist activity at VDR-LBD in human DU145 cells assessed as CYP24A1 expression at 7.5 uM after 18 hrs by qRT-PCR method relative to 1alpha,25-dihydroxyvitamin D3; assay type: cell-based; details: DU-145
T1 sequence (whole entry): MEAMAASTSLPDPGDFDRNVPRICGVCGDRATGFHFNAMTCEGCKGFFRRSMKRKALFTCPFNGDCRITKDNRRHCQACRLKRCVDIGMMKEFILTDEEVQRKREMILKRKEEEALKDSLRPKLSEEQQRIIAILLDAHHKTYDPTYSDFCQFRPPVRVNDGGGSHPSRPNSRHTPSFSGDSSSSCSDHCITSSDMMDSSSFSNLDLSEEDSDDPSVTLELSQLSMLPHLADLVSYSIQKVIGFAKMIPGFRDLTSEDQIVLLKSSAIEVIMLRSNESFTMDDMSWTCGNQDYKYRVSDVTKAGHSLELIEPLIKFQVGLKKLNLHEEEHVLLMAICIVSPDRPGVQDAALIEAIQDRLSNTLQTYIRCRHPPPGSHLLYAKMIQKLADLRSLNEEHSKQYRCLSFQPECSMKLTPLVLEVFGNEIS
Method in brief: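 Non-transfected DU145 cells were grown in DMEM with 10% heat-inactivated FBS and plated on matrigel-coated 6-well plates overnight at 37°C. Total RNA was isolated and CYP24A1 fold change was measured by real-time RT-PCR (Ct method). Experiments were run in triplicate; significance by Dunnett ANOVA.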

[2] = target: T1, Vitamin D3 receptor (Homo sapiens); assay: Agonist activity at VP16 tagged-VDR-LBD (unknown origin) expressed in HEK293T cells assessed as SRC1 coactivator peptide recruitment after 16 hrs by luciferase reporter gene based two hybrid assay relative to 1,25-dihydroxyvitamin D3; assay type: cell-based; details: HEK-293T
Method in brief: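 HEK293T cells were lipid-transfected with VP16-VDR-LBD, SRC1-GAL4 and 4×UAS luciferase reporter plasmids for 16 h. Cells were then plated at 15,000/well on matrigel in phenol-red-free DMEM with 2% charcoal-treated FBS. Three experiments in quadruplicate; nonlinear regression.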

CC(=O)O[C@@H]1CC[C@@]2(C)[C@H](CC[C@@H]3[C@@H]2CC[C@]2(C)[C@@H]([C@H](C)CCC(=O)O)CC[C@@H]32)C1
Activity [1]: 24% | Efficacy [2]: 94%
